Patent US20100125053A1, “Allosteric Modulation of the Dopamine Transporter Protein for the Treatment of HIV-1 Induced Neurologic Dysfunction” (priority 2008, published 2010)

Protein sequences, listed by entry. Tags and fused reporters are not part of them.
UniProt P23977, whole entry: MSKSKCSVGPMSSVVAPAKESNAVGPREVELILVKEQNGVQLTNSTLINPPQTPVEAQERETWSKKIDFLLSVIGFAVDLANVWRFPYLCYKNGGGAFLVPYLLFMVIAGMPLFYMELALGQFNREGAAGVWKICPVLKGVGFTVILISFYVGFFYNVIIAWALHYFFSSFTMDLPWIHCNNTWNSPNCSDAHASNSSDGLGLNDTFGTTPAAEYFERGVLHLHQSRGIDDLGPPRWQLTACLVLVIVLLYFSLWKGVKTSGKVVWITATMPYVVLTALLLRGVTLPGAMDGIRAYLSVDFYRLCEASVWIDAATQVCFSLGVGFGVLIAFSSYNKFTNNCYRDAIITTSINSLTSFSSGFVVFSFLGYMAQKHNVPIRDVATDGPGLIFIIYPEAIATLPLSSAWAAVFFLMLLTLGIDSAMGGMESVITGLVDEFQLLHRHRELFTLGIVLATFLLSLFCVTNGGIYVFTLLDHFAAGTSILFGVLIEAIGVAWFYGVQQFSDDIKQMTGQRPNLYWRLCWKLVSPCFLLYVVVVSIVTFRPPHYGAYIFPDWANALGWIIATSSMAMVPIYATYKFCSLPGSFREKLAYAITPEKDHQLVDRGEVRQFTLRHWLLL

Target: T1, DAT protein (Rattus norvegicus, UniProt P23977)
T1 construct: from tissue; host or cells: striatal synaptosomes from adult male Sprague-Dawley rats
Details: read-out: Kd value of the radioligand for [3H]GBR 12935 binding

Structure (SMILES): c1ccc(CCCN2CCN(CCOC(c3ccccc3)c3ccccc3)CC2)cc1 [[^3H]GBR 12935, GBR 12935 [propylene-2,3-^3H]]
- Kd: 1.5 nM
